Assay results as given in PMC13070491, “Single-nucleus transcriptomics, pharmacokinetics, and pharmacodynamics of CDK4/6 and mTOR inhibition in a Phase 0/1 trial of recurrent high-grade glioma” (Neuro-Oncology, 2025).

System: GB126, GB239 and GB86 patient-derived cell lines
Assay: In vitro single-cell RNA sequencing, analyses across the cell lines (pseudobulk differential gene expression, GSEA, non-cycling cells)
Format: cell-based, human
Method: Patient-derived glioma stem cell lines (GSCs; GB126, GB86, and GB239) were established from resected GBM tumor tissue. Cell lines were genetically profiled for mutations and copy number aberrations using the IvySeq custom gene panel. […] GB239 was derived from a tumor sample included in this Phase 0 trial (tumor sample: 100-0039). All human GSCs were cultured as described previously.[12]
Following the fifth day of drug exposure, cells were harvested, cryopreserved to be processed at a later point, or immediately processed for single-cell RNA sequencing (10x Genomics, 3’ version 3). The single-cell RNA sequencing data were then processed via cellranger count and Seurat. Briefly, cells were filtered out based on the following criteria: minimum number of genes detected >500 and <10 000 with a maximum percentage of mitochondrial genes set to 10%. Statistical assessment was made between the malignant proportions of each cell state using a 2-sided paired t-test.
Descriptive statistics of the clinical data are included in Table 1. Comparisons between groups were conducted using a 2-sided or paired 2-sided t-test, where indicated. P < .05 was considered significant. Multiple hypothesis test corrections (ie, false discovery rate correction) were applied for snRNAseq pseudobulk differential expression analysis.

## CN(C)C(=O)c1cc2cnc(Nc3ccc(N4CCNCC4)cn3)nc2n1C1CCCC1 [ribo]
Feature AL049749.1, ribociclib versus control (DMSO)
  log2FoldChange: 1.309
Feature AL049775.1, ribociclib versus control (DMSO)
  log2FoldChange: 1.265
Feature AL079307.1, ribociclib versus control (DMSO)
  log2FoldChange: 1.03
Feature AL117190.2, ribociclib versus control (DMSO)
  log2FoldChange: 1.288
Feature AL121894.3, ribociclib versus control (DMSO)
  log2FoldChange: 1.155
Feature AL121956.4, ribociclib versus control (DMSO)
  log2FoldChange: 1.24
Feature AL133268.4, ribociclib versus control (DMSO)
  log2FoldChange: 1.034
Feature AL139231.1, ribociclib versus control (DMSO)
  log2FoldChange: 1.099
Feature AL161851.2, ribociclib versus control (DMSO)
  log2FoldChange: 1.142
Feature AL161938.1, ribociclib versus control (DMSO)
  log2FoldChange: 1.26
Feature AL162253.1, ribociclib versus control (DMSO)
  log2FoldChange: 1.134
Feature AL162727.2, ribociclib versus control (DMSO)
  log2FoldChange: 1.236
Feature AL353626.1, ribociclib versus control (DMSO)
  log2FoldChange: 1.253
Feature AL353759.1, ribociclib versus control (DMSO)
  log2FoldChange: 1.031
Feature AL355612.1, ribociclib versus control (DMSO)
  log2FoldChange: 1.03
Feature AL355835.1, ribociclib versus control (DMSO)
  log2FoldChange: 1.0289
Feature AL356108.1, ribociclib versus control (DMSO)
  log2FoldChange: 1.29
Feature AL356124.1, ribociclib versus control (DMSO)
  log2FoldChange: 1.29
Feature AL359220.1, ribociclib versus control (DMSO)
  log2FoldChange: 1.062
Feature AL359313.1, ribociclib versus control (DMSO)
  log2FoldChange: 1.2467
Feature AL392023.2, ribociclib versus control (DMSO)
  log2FoldChange: 1.316
Feature AL392024.1, ribociclib versus control (DMSO)
  log2FoldChange: 1.047
Feature AL449983.1, ribociclib versus control (DMSO)
  log2FoldChange: 1.152
Feature AL591686.2, ribociclib versus control (DMSO)
  log2FoldChange: 1.253
Feature AL592424.1, ribociclib versus control (DMSO)
  log2FoldChange: 1.08
Feature AL596218.1, ribociclib versus control (DMSO)
  log2FoldChange: 1.151
Feature AL603910.1, ribociclib versus control (DMSO)
  log2FoldChange: 1.184
Feature ANGPT1, ribociclib versus control (DMSO)
  log2FoldChange: 1.06
Feature ANXA10, ribociclib versus control (DMSO)
  log2FoldChange: 1.251
Feature AP000265.1, ribociclib versus control (DMSO)
  log2FoldChange: 1.037
Feature AP000357.2, ribociclib versus control (DMSO)
  log2FoldChange: 1.309
Feature AP000542.2, ribociclib versus control (DMSO)
  log2FoldChange: 1.273
Feature AP001407.1, ribociclib versus control (DMSO)
  log2FoldChange: 1.218
Feature LY96, ribociclib versus control (DMSO)
  log2FoldChange: 1.105
Feature MALL, ribociclib versus control (DMSO)
  log2FoldChange: 1.189
Feature MATN2, ribociclib versus control (DMSO)
  log2FoldChange: 1.2
Feature MEG3, ribociclib versus control (DMSO)
  log2FoldChange: 1.185
Feature METTL7B, ribociclib versus control (DMSO)
  log2FoldChange: 1.1473
Feature MIAT, ribociclib versus control (DMSO)
  log2FoldChange: 1.0319
Feature MIR2117HG, ribociclib versus control (DMSO)
  log2FoldChange: 1.151
Feature MMP15, ribociclib versus control (DMSO)
  log2FoldChange: 1.023
Feature MOG, ribociclib versus control (DMSO)
  log2FoldChange: 1.104
Feature MRO, ribociclib versus control (DMSO)
  log2FoldChange: 1.154
Feature MRVI1, ribociclib versus control (DMSO)
  log2FoldChange: 1.161
Feature NAALADL2-AS1, ribociclib versus control (DMSO)
  log2FoldChange: 1.113
Feature NAALADL2-AS2, ribociclib versus control (DMSO)
  log2FoldChange: 1.246
Feature NFAM1, ribociclib versus control (DMSO)
  log2FoldChange: 1.039
Feature NPR1, ribociclib versus control (DMSO)
  log2FoldChange: 1.293
Feature NR1H4, ribociclib versus control (DMSO)
  log2FoldChange: 1.051
Feature NTSR2, ribociclib versus control (DMSO)
  log2FoldChange: 1.241
Feature NXPE1, ribociclib versus control (DMSO)
  log2FoldChange: 1.287
Feature NYAP2, ribociclib versus control (DMSO)
  log2FoldChange: 1.257
Feature OAS1, ribociclib versus control (DMSO)
  log2FoldChange: 1.149
Feature P2RX6, ribociclib versus control (DMSO)
  log2FoldChange: 1.241
Feature PACRG-AS1, ribociclib versus control (DMSO)
  log2FoldChange: 1.037
Feature PACRG-AS3, ribociclib versus control (DMSO)
  log2FoldChange: 1.079
Feature PBXIP1, ribociclib versus control (DMSO)
  log2FoldChange: 1.078
Feature PCAT4, ribociclib versus control (DMSO)
  log2FoldChange: 1.019
Feature PCAT6, ribociclib versus control (DMSO)
  log2FoldChange: 1.133
Feature PCDH9-AS2, ribociclib versus control (DMSO)
  log2FoldChange: 1.129
Feature PCDH9-AS3, ribociclib versus control (DMSO)
  log2FoldChange: 1.15
Feature PCDHB12, ribociclib versus control (DMSO)
  log2FoldChange: 1.05
Feature PMP2, ribociclib versus control (DMSO)
  log2FoldChange: 1.189
Feature POLN, ribociclib versus control (DMSO)
  log2FoldChange: 1.055
Feature PON1, ribociclib versus control (DMSO)
  log2FoldChange: 1.145
Feature PSORS1C1, ribociclib versus control (DMSO)
  log2FoldChange: 1.056
Feature PTPN7, ribociclib versus control (DMSO)
  log2FoldChange: 1.179
Feature PTPN20, ribociclib versus control (DMSO)
  log2FoldChange: 1.021
Feature RGS11, ribociclib versus control (DMSO)
  log2FoldChange: 1.045
Feature RSPO4, ribociclib versus control (DMSO)
  log2FoldChange: 1.105
Feature RUFY4, ribociclib versus control (DMSO)
  log2FoldChange: 1.322
Feature SAMD9L, ribociclib versus control (DMSO)
  log2FoldChange: 1.086
Feature SCML4, ribociclib versus control (DMSO)
  log2FoldChange: 1.059
Feature SCN2B, ribociclib versus control (DMSO)
  log2FoldChange: 1.253
Feature SCN3A, ribociclib versus control (DMSO)
  log2FoldChange: 1.19
Feature SEMA4A, ribociclib versus control (DMSO)
  log2FoldChange: 1.083
Feature SEMG1, ribociclib versus control (DMSO)
  log2FoldChange: 1.1288
Feature SERPINI1, ribociclib versus control (DMSO)
  log2FoldChange: 1.0367
Feature SH2D6, ribociclib versus control (DMSO)
  log2FoldChange: 1.22
Feature SLC1A1, ribociclib versus control (DMSO)
  log2FoldChange: 1.117
Feature SLC13A1, ribociclib versus control (DMSO)
  log2FoldChange: 1.102
Feature SLC18A1, ribociclib versus control (DMSO)
  log2FoldChange: 1.2151
Feature SLC43A2, ribociclib versus control (DMSO)
  log2FoldChange: 1.12
Feature SLC46A2, ribociclib versus control (DMSO)
  log2FoldChange: 1.146
Feature SP140L, ribociclib versus control (DMSO)
  log2FoldChange: 1.188
Feature SRPK3, ribociclib versus control (DMSO)
  log2FoldChange: 1.05
Feature STAT6, ribociclib versus control (DMSO)
  log2FoldChange: 1.158
Feature STK32A, ribociclib versus control (DMSO)
  log2FoldChange: 1.1342
Feature STRA8, ribociclib versus control (DMSO)
  log2FoldChange: 1.149
Feature SULT1C4, ribociclib versus control (DMSO)
  log2FoldChange: 1.049
Feature TDO2, ribociclib versus control (DMSO)
  log2FoldChange: 1.0307
Feature TGM2, ribociclib versus control (DMSO)
  log2FoldChange: 1.091
Feature THBS2, ribociclib versus control (DMSO)
  log2FoldChange: 1.159
Feature TIE1, ribociclib versus control (DMSO)
  log2FoldChange: 1.297
Feature TLR7, ribociclib versus control (DMSO)
  log2FoldChange: 1.197
Feature TLR8-AS1, ribociclib versus control (DMSO)
  log2FoldChange: 1.1345
Feature TMEM246-AS1, ribociclib versus control (DMSO)
  log2FoldChange: 1.08
Feature TMOD1, ribociclib versus control (DMSO)
  log2FoldChange: 1.051
Feature TMPRSS11A, ribociclib versus control (DMSO)
  log2FoldChange: 1.092
